miR-21 FLuc: raises the signal of a miR-21 reporter; HeLa miR-21 FLuc reporter, luciferase, 48 h; Potency, µM (highest dose often 38.3 µM); 340,000 tested, under 10 active; active = well fitted rising curve with a large enough effect; inconclusive = small, poorly fitted or top-dose-only effect; inactive = no such curve, though single readings can be large or run the other way;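 also: miR-21 action dims this reporter so a rising signal means less miR-21 action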
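Using DMEM plus 10% FBS, HeLa miR-21-FLuc cells are incubated with test compounds (final up to about 40uM) for 48 hours; firefly luciferase signal is then imaged following reagent-mediated lysis.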
JMJD2E inh: inhibitors of human JMJD2E histone demethylase; JMJD2E catalytic domain, FDH-coupled NADH fluorescence (FDH is formaldehyde dehydrogenase); Potency, µM (top dose mostly 57.1 µM), actives largely listed as inhibitors; actives 1.6% (n = 230,000); AID 2147; active means well fitted inhibition curve with a large enough effect, not every such curve was filed as active; inconclusive means small, poorly fitted or top-dose-only effect, or another doubt; inactive means no such curve, though single readings can be large or run the other way; further: nearly all actives have a fitted effect of over 50% in size
LMNA splice mod: LMNA splicing modulation; HeLa LMNA splicing GFP/RFP minigene ratio, 48 h; Potency, µM (highest dose often 46.1 µM), hits mostly inhibitors; actives 0.01% (n = 200,000); AID 1487; active means well fitted inhibition curve with a large enough effect in the signal ratio, with a control signal flat, not every such curve was filed as active; inconclusive means small, poorly fitted or top-dose-only effect, or effect the other way, or a change in a side signal; the % refers to the signal ratio
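Read-out is the ratio of GFP to DsRed2 object intensity, acquired by 488 nm laser-scanning cytometry on HeLa lamin A-EGFP minigene reporter cells. Compound incubation 48 hrs at 37 °C in Opti-MEM with 2% FBS; DMSO 0.5% final.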
G9a block: blocks human histone lysine methyltransferase G9a | Q96KQ7 | G9a H3K9 monomethylation, AlphaScreen, 2 h | Potency, µM (top dose mostly 102 µM), usual class: inhibitors | actives 8.8% (n = 350,000); further: nearly all actives have a fitted effect of over 75% in size
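G9a (20 nM) preincubated 15 min RT with compounds, then 500 nM biotinylated H3K9 peptide and 20 uM SAM added; 2 h RT reaction. Monomethyl-H3K9 product detected by AlphaScreen with anti-H3K9me1 antibody, streptavidin donor and anti-rabbit IgG acceptor beads.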
ALDH1A1 block: inhibitors of human aldehyde dehydrogenase 1A1. AID 1030. Purified ALDH1A1, NADH fluorescence, propionaldehyde substrate. P00352. Potency, µM (titrated, usually from 75.3 µM), actives largely listed as inhibitors. actives 7.3% (n = 220,000); active means well fitted inhibition curve with a large enough effect, not every such curve was filed as active; inconclusive means small, poorly fitted or top-dose-only effect, or another doubt; inactive means no such curve, though single readings can be large or run the other way
Sfp PPTase inh: inhibitors of Bacillus subtilis Sfp phosphopantetheinyl transferase; Q9F4F7; Biochemical Sfp PPTase activity, qHTS; Potency, µM, hits mostly inhibitors; actives 3.5% (n = 310,000);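 further: the enzyme is Sfp with the accession as filed and its product quenches rhodamine fluorescence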
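Sfp 15 nM + cpd, 15 min RT; start w/ rhodamine-CoA 5 uM, BHQ-2-YbbR 12.5 uM (final); 50 mM Hepes pH 7.6, 10 mM MgCl2, 0.01% NP-40, 0.01% BSA; read 525/598 nm at 0 and 30 min.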
Large screens that a line does not name were inactive; ! = repeats disagree. In the library only some 13% were active in any assay of this set; here they are far more common. Unless noted, the call rests on the fitted dose curve; in most records, active means well fitted curve in the direction sought with a large enough effect; inconclusive means small, poorly fitted or top-dose-only effect, or another doubt; inactive means no such curve, though single readings can be large; an effect the other way counts as inactive or inconclusive.

CSc1nsc(SCC(=O)Nc2ccc(C(=O)O)cc2)n1	G9a block inconclusive (no result: JMJD2E inh, LMNA splice mod, ALDH1A1 block)
NC(=O)C1CCN(CC(=O)Nc2ccccc2Sc2ccc(Cl)cc2)CC1	none
O=C(CN1CCCC1)Nc1ccccc1Sc1ccc(Cl)cc1	JMJD2E inh inconclusive, Sfp PPTase inh 79.4µM (no result: LMNA splice mod)
Cc1nc2ccccn2c1-c1ccnc(=S)[nH]1	G9a block 10µM, ALDH1A1 block inconclusive, Sfp PPTase inh 10µM (no result: LMNA splice mod)
c1ccn2c(c1)nc1c2nc2ccccn21	JMJD2E inh inconclusive, ALDH1A1 block inconclusive
COc1ccccc1NC(=O)CSc1nnc2ccc(-c3cccnc3)nn12	G9a block 39.8µM
CC(=O)Nc1ccc(NC(=O)CSc2ccc3nnc(-c4cccnc4)n3n2)cc1	G9a block 31.6µM (no result: JMJD2E inh, LMNA splice mod, ALDH1A1 block)
O=C(CSc1ccc2nnc(-c3ccncc3)n2n1)Nc1ccc2c(c1)OCO2	G9a block 31.6µM, ALDH1A1 block inconclusive
Cc1ccc(NC(=O)CSc2ccc3nnc(-c4cccnc4)n3n2)cc1	none (no result: JMJD2E inh, LMNA splice mod, ALDH1A1 block)
CCOc1ccccc1NC(=O)CSc1nnc2ccc(-c3cccnc3)nn12	none
O=C1C(O)=C(O)C(=O)C(O)=C1O	JMJD2E inh 12.6µM, LMNA splice mod inconclusive, G9a block 6.31µM!, ALDH1A1 block inconclusive, Sfp PPTase inh 28.2µM (no result: miR-21 FLuc)
CCOc1ccc(NC(=O)CSc2nc3nc(C)c(Cc4ccccc4)c(C)n3n2)cc1	none (no result: JMJD2E inh, ALDH1A1 block, Sfp PPTase inh)
Cc1cccc(N=C2Sc3nc4c(C)c(C)ccc4cc3CN2CCN2CCOCC2)c1	G9a block inconclusive, Sfp PPTase inh inconclusive
CCC(C)N=C1Sc2nc3ccc(C)cc3cc2CN1CCOC (stereo unspecified)	G9a block 5.01µM, ALDH1A1 block 14.1µM, Sfp PPTase inh 44.7µM (no result: LMNA splice mod)
COCCN1Cc2cc3cc(C)ccc3nc2SC1=Nc1ccc(OC)cc1	G9a block 44.7µM, Sfp PPTase inh 20µM
COCCN=C1Sc2nc3c(C)cccc3cc2CN1Cc1ccco1	JMJD2E inh inconclusive, LMNA splice mod inconclusive, ALDH1A1 block 3.55µM, Sfp PPTase inh 20µM
CCOc1ccc(N=C2Sc3nc4ccc(C)cc4cc3CN2CCOC)cc1	JMJD2E inh inconclusive, G9a block inconclusive, Sfp PPTase inh inconclusive (no result: LMNA splice mod)
Cc1ccc2nc3c(cc2c1)CN(Cc1ccco1)C(=NCC1CCCO1)S3 (stereo unspecified)	G9a block inconclusive, ALDH1A1 block inconclusive, Sfp PPTase inh inconclusive
CCOc1ccc2nc3c(cc2c1)CN(CCCO)C(=NCCOC)S3	JMJD2E inh inconclusive, G9a block 31.6µM
CCN(CC)c1ccc(/C=N/n2c(C)nc3ccccc3c2=O)cc1	none (no result: JMJD2E inh, LMNA splice mod, ALDH1A1 block)
O=C(NCc1ccco1)c1ccc(Cn2c(SCc3ccc(F)cc3)nc3cccnc32)cc1	LMNA splice mod inconclusive (no result: JMJD2E inh, ALDH1A1 block, Sfp PPTase inh)
N#Cc1ccccc1Cn1c(=O)n(CCCCC(=O)NCc2ccc3c(c2)OCO3)c(=O)c2ccccc21	none (no result: JMJD2E inh, LMNA splice mod, ALDH1A1 block, Sfp PPTase inh)
O=C(N/N=C/c1cccc(Br)c1)C1CC(=O)N(c2ccccc2)C1 (stereo unspecified)	none (no result: JMJD2E inh, LMNA splice mod, ALDH1A1 block)
COCCN1Cc2cc3cc(C)ccc3nc2SC1=Nc1cccc(OC)c1	JMJD2E inh inconclusive, ALDH1A1 block inconclusive (no result: LMNA splice mod)
COCCN=C1Sc2nc3ccc(C)cc3cc2CN1Cc1cccs1	Sfp PPTase inh 22.4µM
NS(=O)(=O)c1ccc(NC(=O)c2csnn2)cc1	LMNA splice mod inconclusive, G9a block 22.4µM (no result: JMJD2E inh, ALDH1A1 block, Sfp PPTase inh)
O=C(NC(=S)Nc1ccccc1Cl)c1csnn1	LMNA splice mod inconclusive, ALDH1A1 block 4.47µM, Sfp PPTase inh 50.1µM
O=C(NNS(=O)(=O)c1ccc(Br)cc1)c1csnn1	G9a block 50.1µM (no result: LMNA splice mod)
CC(C)c1ccc(NC(=O)c2csnn2)cc1	ALDH1A1 block 17.8µM
O=C(NNS(=O)(=O)c1ccc(Br)cc1)c1ccccc1-n1cccc1	none (no result: JMJD2E inh, LMNA splice mod, ALDH1A1 block)
O=C(NC(=O)N1CCCC1)c1csnn1	G9a block 56.2µM (no result: LMNA splice mod, ALDH1A1 block)
O=C(NC(=O)N1CCCCC1)c1ccccc1	none
Cn1cnnc1Sc1ccc(C(=O)OCC(=O)Nc2ccccc2)cc1[N+](=O)[O-]	none
CCC(C)(C)NC(=O)c1ccc(Sc2nncn2C)c([N+](=O)[O-])c1	none
Cn1cnnc1Sc1ccc(C(=O)OCC(=O)Nc2cc(Cl)cc(Cl)c2)cc1[N+](=O)[O-]	G9a block 15.8µM
Cn1cnnc1Sc1ccc(C(=O)NCCC23CC4CC(CC(C4)C2)C3)cc1[N+](=O)[O-]	ALDH1A1 block 2.82µM

Source: PubChem BioAssay
